Source: patent US20230063420A1

Biological target: GLP-1 receptor (Example 19, species not stated)
Test: cell-based or functional assay

exenatide (peptide)
pEC50, cAMP accumulation, 0% HSA: 12.2 -log M
pEC50, cAMP accumulation, 0.1% HSA: 12.2 -log M
pEC50, cAMP accumulation, 4% HSA: 12.1 -log M
